Columns and labels:
[1] = biological target: human EGFR exon 20 insertion ASV (V769_D770insASV) (Homo sapiens, UniProt P00533, INS769ASV); assay: Ba/F3-EGFR-Exon20-ASV cell anti-proliferative assay (CellTiter 96 MTS, 72 h); assay type: cell-based; conditions: read-out: EGFR exon 20 ASV insertion IC50, Ba/F3-EGFR-Exon20-ASV cells
[2] = biological target: Her2 exon 20 YVMA insertion (A775_G776ins YVMA) (Homo sapiens, UniProt P04626, INS775YVMA); assay: Ba/F3-Her2 Exon20 YVMA cell anti-proliferative assay (CellTiter 96 MTS, 72 h); conditions: read-out: HER2 exon 20 YVMA insertion IC50, Ba/F3-Her2 Exon20 YVMA cells
[3] = biological target: human EGFR exon 20 insertion NPG (H773_V774insNPG) (Homo sapiens, UniProt P00533, INS772GNP); assay: Ba/F3-EGFR-Exon20-NPG cell anti-proliferative assay (CellTiter 96 MTS, 72 h); assay type: cell-based; conditions: read-out: EGFR exon 20 NPG insertion IC50, Ba/F3-EGFR-Exon20-NPG cells
[4] = biological target: human EGFR E746-A750 deletion and T790M Mutation (Homo sapiens, UniProt P00533, DEL746-750/T790M); assay: Ba/F3-EGFR-Del/T790M cell anti-proliferative assay (CellTiter 96 MTS, 72 h); assay type: cell-based; conditions: read-out: EGFR exon 19 deletion and exon 20 T790M mutation IC50, Ba/F3-EGFR-Del/T790M cells

Protein sequences, listed by entry. Tags and fused reporters are not part of them. Chains listed by the source or under a name are the forms on record and can include a tag or linker.
UniProt P00533, with tags, fused parts or gaps INS769ASV limits assumed: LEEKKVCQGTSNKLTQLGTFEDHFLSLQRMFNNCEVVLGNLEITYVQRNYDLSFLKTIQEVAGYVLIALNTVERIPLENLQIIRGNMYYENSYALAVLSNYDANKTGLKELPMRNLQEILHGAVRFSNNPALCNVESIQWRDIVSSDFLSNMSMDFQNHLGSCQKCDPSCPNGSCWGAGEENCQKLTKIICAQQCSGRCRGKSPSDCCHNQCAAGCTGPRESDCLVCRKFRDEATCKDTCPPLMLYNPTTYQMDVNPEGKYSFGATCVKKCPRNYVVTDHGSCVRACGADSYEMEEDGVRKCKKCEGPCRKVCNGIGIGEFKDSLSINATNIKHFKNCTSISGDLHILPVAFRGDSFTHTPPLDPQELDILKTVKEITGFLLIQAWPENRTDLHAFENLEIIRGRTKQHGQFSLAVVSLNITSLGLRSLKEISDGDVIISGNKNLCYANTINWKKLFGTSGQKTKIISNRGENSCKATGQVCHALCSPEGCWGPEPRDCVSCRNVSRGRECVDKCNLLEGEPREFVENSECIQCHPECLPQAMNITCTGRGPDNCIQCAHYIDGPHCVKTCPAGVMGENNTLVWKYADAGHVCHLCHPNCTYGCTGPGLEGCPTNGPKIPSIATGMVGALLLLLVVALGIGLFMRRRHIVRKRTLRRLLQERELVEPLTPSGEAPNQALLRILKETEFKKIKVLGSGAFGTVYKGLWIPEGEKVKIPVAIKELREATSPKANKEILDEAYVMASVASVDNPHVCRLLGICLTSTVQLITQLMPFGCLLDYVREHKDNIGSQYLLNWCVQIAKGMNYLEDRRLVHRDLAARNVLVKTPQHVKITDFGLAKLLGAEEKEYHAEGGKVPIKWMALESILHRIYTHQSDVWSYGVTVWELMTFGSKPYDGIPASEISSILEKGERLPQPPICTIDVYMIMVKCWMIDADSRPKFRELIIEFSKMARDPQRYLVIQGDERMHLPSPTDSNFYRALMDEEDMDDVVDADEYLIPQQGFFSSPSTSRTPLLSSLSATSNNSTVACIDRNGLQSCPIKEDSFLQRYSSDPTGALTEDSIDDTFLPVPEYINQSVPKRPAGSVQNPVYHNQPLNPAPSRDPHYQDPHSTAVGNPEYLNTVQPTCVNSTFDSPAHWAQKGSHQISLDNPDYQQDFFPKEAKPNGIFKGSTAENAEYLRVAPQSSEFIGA
UniProt P00533, with tags, fused parts or gaps INS772GNP limits assumed: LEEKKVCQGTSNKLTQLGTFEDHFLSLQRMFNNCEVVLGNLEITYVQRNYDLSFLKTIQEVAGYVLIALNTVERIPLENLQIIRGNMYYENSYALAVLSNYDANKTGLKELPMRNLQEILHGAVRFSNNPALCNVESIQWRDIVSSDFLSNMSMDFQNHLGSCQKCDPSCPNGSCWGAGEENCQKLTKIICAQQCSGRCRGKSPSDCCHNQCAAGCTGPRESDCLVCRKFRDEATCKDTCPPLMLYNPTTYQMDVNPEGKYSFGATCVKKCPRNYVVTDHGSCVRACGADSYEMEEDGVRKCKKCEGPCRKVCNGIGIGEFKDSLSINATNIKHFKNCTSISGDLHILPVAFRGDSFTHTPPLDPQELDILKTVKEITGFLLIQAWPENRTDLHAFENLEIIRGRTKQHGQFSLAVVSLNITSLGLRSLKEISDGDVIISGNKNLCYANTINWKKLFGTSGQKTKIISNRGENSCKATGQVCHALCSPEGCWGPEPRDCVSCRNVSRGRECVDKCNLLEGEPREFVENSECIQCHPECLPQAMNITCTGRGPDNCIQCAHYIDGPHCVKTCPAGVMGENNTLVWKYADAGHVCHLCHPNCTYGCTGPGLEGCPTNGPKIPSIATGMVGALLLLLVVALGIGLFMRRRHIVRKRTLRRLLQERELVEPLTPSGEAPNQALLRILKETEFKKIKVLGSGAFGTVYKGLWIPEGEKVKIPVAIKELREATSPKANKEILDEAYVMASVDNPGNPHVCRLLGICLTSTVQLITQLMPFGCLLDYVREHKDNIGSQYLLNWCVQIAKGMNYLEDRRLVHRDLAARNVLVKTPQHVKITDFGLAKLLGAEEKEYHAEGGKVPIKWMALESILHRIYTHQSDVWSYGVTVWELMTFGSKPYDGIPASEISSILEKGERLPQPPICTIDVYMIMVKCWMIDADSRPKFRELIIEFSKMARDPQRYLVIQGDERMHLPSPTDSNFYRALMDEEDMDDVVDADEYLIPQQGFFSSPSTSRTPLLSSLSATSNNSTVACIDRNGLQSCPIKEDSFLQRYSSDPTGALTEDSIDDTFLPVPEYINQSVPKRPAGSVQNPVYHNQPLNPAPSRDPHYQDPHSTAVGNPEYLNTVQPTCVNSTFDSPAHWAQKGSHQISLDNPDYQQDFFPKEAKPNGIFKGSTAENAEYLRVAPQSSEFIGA
UniProt P00533, with tags, fused parts or gaps DEL746-750/T790M limits assumed: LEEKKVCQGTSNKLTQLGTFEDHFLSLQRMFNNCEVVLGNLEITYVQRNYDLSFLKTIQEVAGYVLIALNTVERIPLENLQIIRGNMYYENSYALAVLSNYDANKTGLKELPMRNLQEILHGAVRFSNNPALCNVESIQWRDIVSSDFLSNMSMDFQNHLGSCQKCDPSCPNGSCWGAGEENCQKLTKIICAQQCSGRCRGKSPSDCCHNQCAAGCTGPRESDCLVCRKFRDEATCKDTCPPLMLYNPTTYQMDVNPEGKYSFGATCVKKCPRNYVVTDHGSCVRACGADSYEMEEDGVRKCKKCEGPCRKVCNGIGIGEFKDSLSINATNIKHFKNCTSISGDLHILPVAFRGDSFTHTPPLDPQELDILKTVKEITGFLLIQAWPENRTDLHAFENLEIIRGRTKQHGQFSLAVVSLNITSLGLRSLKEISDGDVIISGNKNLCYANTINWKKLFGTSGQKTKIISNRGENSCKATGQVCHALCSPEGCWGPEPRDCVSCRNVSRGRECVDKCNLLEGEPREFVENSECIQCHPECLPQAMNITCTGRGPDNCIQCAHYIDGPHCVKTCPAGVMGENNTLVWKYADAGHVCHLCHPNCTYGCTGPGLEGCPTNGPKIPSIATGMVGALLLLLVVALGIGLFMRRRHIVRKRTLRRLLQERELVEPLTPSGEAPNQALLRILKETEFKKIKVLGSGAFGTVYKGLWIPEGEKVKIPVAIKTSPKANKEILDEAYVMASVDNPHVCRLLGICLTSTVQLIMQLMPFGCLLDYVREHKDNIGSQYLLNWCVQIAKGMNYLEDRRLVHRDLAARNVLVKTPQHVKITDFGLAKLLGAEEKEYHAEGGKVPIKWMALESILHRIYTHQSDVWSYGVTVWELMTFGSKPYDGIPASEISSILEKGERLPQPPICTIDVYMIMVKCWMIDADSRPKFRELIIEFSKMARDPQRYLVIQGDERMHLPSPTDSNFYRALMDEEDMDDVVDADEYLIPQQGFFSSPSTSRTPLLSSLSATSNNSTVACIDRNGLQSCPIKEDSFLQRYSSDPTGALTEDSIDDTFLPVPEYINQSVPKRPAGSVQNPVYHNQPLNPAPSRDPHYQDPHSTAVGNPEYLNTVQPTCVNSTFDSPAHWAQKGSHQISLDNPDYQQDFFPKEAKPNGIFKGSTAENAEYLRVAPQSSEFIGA
UniProt P04626, with tags, fused parts or gaps INS775YVMA limits assumed: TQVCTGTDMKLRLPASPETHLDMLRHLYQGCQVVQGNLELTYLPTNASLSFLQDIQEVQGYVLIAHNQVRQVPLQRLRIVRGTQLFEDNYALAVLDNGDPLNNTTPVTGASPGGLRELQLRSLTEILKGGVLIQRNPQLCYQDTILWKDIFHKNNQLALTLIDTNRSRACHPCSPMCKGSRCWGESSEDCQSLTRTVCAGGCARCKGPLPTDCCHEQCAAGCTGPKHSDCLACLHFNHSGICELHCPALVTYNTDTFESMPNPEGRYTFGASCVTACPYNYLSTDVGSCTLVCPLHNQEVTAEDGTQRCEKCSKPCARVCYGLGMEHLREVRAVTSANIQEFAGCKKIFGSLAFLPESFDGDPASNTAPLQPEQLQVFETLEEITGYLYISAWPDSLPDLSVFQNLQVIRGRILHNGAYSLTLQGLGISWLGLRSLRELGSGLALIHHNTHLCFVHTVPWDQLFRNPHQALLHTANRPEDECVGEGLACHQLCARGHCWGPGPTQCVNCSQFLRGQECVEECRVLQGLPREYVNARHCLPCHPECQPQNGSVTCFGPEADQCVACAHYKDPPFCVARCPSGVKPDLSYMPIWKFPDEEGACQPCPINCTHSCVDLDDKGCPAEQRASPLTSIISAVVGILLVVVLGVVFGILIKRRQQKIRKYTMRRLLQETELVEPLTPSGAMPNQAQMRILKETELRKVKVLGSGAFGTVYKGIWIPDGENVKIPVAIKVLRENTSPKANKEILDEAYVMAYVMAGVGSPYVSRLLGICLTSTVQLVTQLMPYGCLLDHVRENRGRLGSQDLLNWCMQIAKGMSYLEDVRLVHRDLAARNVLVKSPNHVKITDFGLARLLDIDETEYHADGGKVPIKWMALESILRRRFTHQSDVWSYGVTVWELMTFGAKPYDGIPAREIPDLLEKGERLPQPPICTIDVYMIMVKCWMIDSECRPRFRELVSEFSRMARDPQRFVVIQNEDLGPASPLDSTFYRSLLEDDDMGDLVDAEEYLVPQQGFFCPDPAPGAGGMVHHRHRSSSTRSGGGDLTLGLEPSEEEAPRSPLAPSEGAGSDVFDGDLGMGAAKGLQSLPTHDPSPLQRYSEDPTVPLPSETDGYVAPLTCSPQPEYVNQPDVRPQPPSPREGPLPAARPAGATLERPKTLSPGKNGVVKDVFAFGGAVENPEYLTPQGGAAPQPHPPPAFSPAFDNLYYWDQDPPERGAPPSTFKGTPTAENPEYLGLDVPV

Compound | IC50 [1] | IC50 [2] | IC50 [3] | IC50 [4]
C=CC(=O)Nc1cc(Nc2ncc(CCCCO)c(-c3cn4c5c(cccc35)CCC4)n2)c(OC)cc1N(C)CCN(C)C | < 0.1 µM | 0.1 to 0.5 µM | < 0.1 µM | < 0.1 µM
C=CC(=O)Nc1cc(Nc2ncc(-c3cnn(C(C)C)c3)c(-c3cn4c5c(cccc35)CCC4)n2)c(OC)cc1N(C)CCN(C)C | < 0.1 µM | < 0.1 µM | < 0.1 µM | < 0.1 µM
